Assay results taken from patent US11103557.

Target: GLP-1 receptor
Assay: cell-based or functional assay

Exenatide (Exendin-4) (peptide)
EC50 (nM), activity on GLP-1 receptor (CRE luciferase reporter): 0.112 nM
